According to patent US20240182596A1, “ANTI-NAPI2B ANTIBODIES AND ANTIBODY-DRUG-CONJUGATES BASED THEREON, THERAPEUTIC METHODS AND USES THEREOF” (Tubulis GmbH, priority 2022, published 2024):

Tested on: FcγRI, FcγRIIa/CD32, FcγRIIIa/CD16
Assay: Lumit FcγR Binding Immunoassays
Set-up: species or system human
Conditions: competition with Tracer-LgBiT, n=1

## trastuzumab: positive control in FcγR binding immunoassays [reference compound]
  Interaction with FcγR: reduced interaction with all FcγR compared to the positive control
